According to publication PMC9775004 (Biosensors, 2022):

Tested on: FILLac10N0C
Assay: FRET emission ratio (Venus to mTFP) response of purified FILLac10N0C
Assay type: binding, Salmonella enterica serovar Typhimurium LT2
Settings: 50 μM compound

With `O=C(O)CC(C(=O)O)C(O)C(=O)O` (stereo not shown) [isocitrate] the “fluorescence emission ratio change of FILLac10N0C (specificity analysis)” value was “did not change the emission ratio”.
